Among the targets are HLA-DR DRB5*0101 (DR51) (Homo sapiens, UniProt P01903+Q30154); HLA-B*4403 (Homo sapiens, UniProt P01889, A223V/A65T/A93T/A95T/D201E/D98Y/E176V/E187L/E204Q/E69K/G107R/H137Y/K202T/L105A/L119I/N104T/N87E/Q56L/Q94N/R106L/R155S/R180L/S101N/S121R/S35A/S48T/T118I/V36M/W191S/Y140D/Y91S); HLA-B*1801 (Homo sapiens, UniProt P01889, A329T/A93T/A95T/C349S/D201E/D54G/D98Y/E176V/E187T/E204Q/E69T/K202T/Q94N/R155S/R180L/S121R/V306I/Y140S/Y195H/Y33H/Y91S); HLA-B*4501 (Homo sapiens, UniProt P01889, A329T/A65T/A93T/A95T/C349S/D138N/D201E/D98Y/E176V/E187L/E204Q/E69K/H137Y/K202T/L119W/N87E/Q56L/Q94N/R155S/R180D/S121R/S35A/S48T/V127L/V306I/V36M/W191S/Y140L/Y33H/Y91S); HLA-B*4002 (Homo sapiens, UniProt P01889, A65T/A93T/A95T/D138N/D201E/D98Y/E176V/E204Q/E69K/K202T/N87E/Q56L/Q94N/R180L/S48T/Y33H/Y91S); HLA-B*4402 (Homo sapiens, UniProt P01889, A223V/A65T/A93T/A95T/D201E/D98Y/E176V/E187L/E204Q/E69K/G107R/H137Y/K202T/L105A/L119I/N104T/N87E/Q56L/Q94N/R106L/R155S/R180D/S101N/S121R/S35A/S48T/T118I/V36M/W191S/Y140D/Y91S); HLA-B*4001 (Homo sapiens, UniProt P01889, A65T/A93T/A95T/D138N/D98Y/E176V/E69K/N87E/Q56L/Q94N/R180L/S121R/S35A/S48T/T167S/V36M/W171L/Y33H/Y91S); HLA-DR DRB1*0405 (DR4) (Homo sapiens, UniProt P01903+P01911, A100R/A169T/D86S/F76Y/I96L/K127E/L162R/M171V/N62H/P40V/Q125Y/R42H/S133A/S149N/S66Y/V115G/V209L/W38E); HLA-DR DRB1*1101 (DR11) (Homo sapiens, UniProt P01903+P01911, A100R/A169T/A87E/I96F/K41T/L162R/M171V/P40S/Q125H/Q178H/Q39Y/Q99D/R42S/S66Y/T262R/V115G/W38E); HLA-DR DRB1*0101 (DR1) (Homo sapiens, UniProt P01903+P01911, A100R/D57E/F55L/F60I/F76Y/I96L/L162R/M171V/P40L/Q125E/R42F/V115G/Y59C); HLA-DR DRB1*1501 (DR15) (Homo sapiens, UniProt P01903+P01911); HLA-DR DRB1*0401 (DR4) (Homo sapiens, UniProt P01903+P01911, A100K/A169T/F76Y/I96L/K127E/L162R/M171V/N62H/P40V/Q125Y/R42H/S133A/S149N/S66Y/V115G/V209L/W38E); HLA-DR DRB1*1302 (DR13) (Homo sapiens, UniProt P01903+P01911, A100E/A169T/K41T/L162R/M171V/P40S/Q125H/Q178H/Q39Y/Q99D/R42S/S66N/T262R/V115G/W38E/Y61H); HLA-DR DRB4*0101 (DR53) (Homo sapiens, UniProt P01903+P13762, G164S).

By UniProt entry, the sequences of proteins in these tests, tags left out. Residues count along the entry.
UniProt Q30154, 30-266: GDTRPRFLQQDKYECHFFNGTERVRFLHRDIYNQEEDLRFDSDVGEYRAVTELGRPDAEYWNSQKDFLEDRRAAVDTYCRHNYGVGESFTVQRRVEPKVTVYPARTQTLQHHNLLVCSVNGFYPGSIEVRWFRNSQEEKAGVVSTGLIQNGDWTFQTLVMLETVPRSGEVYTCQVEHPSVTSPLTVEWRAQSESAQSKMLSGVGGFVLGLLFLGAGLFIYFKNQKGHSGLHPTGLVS

Holding throughout (test): biochemical
Assay type in all cases: binding

In patent US20060079453A1, “Hla binding peptides and their uses” (priority 2002, published 2006) one finds IC50 data, which are given here for 15 compounds.

pIC50: −log10 of the molar value. Like-named read-outs stand apart in the source and are kept apart here.

Consider `CC(C)C[C@H](NC(=O)[C@H](Cc1ccccc1)NC(=O)[C@H](CC(N)=O)NC(=O)[C@H](CO)NC(=O)[C@H](Cc1ccc(O)cc1)NC(=O)[C@@H](NC(=O)[C@H](CCCNC(=N)N)NC(=O)[C@H](Cc1ccccc1)NC(=O)[C@H](CC(C)C)NC(=O)[C@H](CCCCN)NC(=O)[C@H](CCCNC(=N)N)NC(=O)[C@H](Cc1ccccc1)NC(=O)[C@@H](NC(=O)[C@@H](N)CC(=O)O)[C@@H](C)O)C(C)C)C(=O)N[C@@H](CCCNC(=N)N)C(=O)O`, for which, on HLA-DR DRB5*0101 (DR51) (DRB5 *0101), the pIC50 was 7.59.
`CC(C)C[C@H](NC(=O)[C@H](CC(=O)O)NC(=O)[C@@H]1CCCN1C(=O)[C@H](Cc1ccccc1)NC(=O)[C@@H](NC(=O)[C@H](CO)NC(=O)[C@@H]1CCCN1C(=O)CNC(=O)[C@H](CCC(=O)O)NC(=O)[C@H](CCC(=O)O)NC(=O)[C@@H](N)CCC(=O)O)[C@@H](C)O)C(=O)O`: the pIC50 was 6.99 at HLA-B*4403; 6.03 on HLA-B*1801; 6.80 on HLA-B*4501; 5.67 against HLA-B*4002; 5.57 at HLA-B*4402; 6.37 against HLA-B*4001.
`CC[C@H](C)[C@H](NC(=O)[C@H](Cc1ccc(O)cc1)NC(=O)[C@H](CC(C)C)NC(=O)[C@H](Cc1c[nH]cn1)NC(=O)CNC(=O)[C@@H](NC(=O)[C@@H]1CCCN1C(=O)[C@H](CC(=O)O)NC(=O)[C@@H](NC(=O)[C@H](CCC(=O)O)NC(=O)[C@@H](N)CCSC)C(C)C)[C@@H](C)CC)C(=O)O`: the pIC50 against HLA-B*4403 is 9.04; against HLA-B*1801, 8.01; on HLA-B*4501, 7.02; on HLA-B*4002, 7.80; at HLA-B*4402 it was 7.19; on HLA-B*4001, 7.47.
On to `CC[C@H](C)[C@H](NC(=O)[C@H](CCC(=O)O)NC(=O)[C@H](CCC(=O)O)NC(=O)[C@@H]1CCCN1)C(=O)N[C@@H](CCCCN)C(=O)N[C@@H](CCC(N)=O)C(=O)N[C@@H](CC(C)C)C(=O)N[C@@H](CCC(N)=O)C(=O)N[C@@H](CCC(N)=O)C(=O)N[C@@H](Cc1ccccc1)C(=O)N[C@@H](CCC(N)=O)C(=O)N[C@@H](CCCCN)C(=O)N[C@@H](CCC(=O)O)C(=O)N[C@@H](CC(=O)O)C(=O)N[C@@H](C)C(=O)O`, for which the pIC50 against HLA-DR DRB1*0405 (DR4) (DRB1 *0405) was 5.10; against HLA-DR DRB5*0101 (DR51) (DRB5 *0101), 6.17; against HLA-DR DRB1*1101 (DR11) (DRB1 *1101), 5.71.
As for `CC[C@H](C)[C@H](NC(=O)[C@H](Cc1ccc(O)cc1)NC(=O)[C@H](C)NC(=O)[C@H](CCC(=O)O)NC(=O)[C@H](CCC(=O)O)NC(=O)[C@H](Cc1ccccc1)NC(=O)[C@H](CCC(=O)O)NC(=O)[C@@H](N)CCC(N)=O)C(=O)N1CCC[C@H]1C(=O)N[C@@H](CCCCN)C(=O)N[C@@H](CCC(=O)O)C(=O)N[C@@H](CCC(N)=O)C(=O)N[C@@H](CCCCN)C(=O)N[C@@H](Cc1ccc(O)cc1)C(=O)N[C@@H](CO)C(=O)O`, the figures for the pIC50 at HLA-DR DRB1*0405 (DR4) (DRB1 *0405), against HLA-DR DRB5*0101 (DR51) (DRB5 *0101) and against HLA-DR DRB1*1101 (DR11) (DRB1 *1101) were 6.40, 5.27 and 4.89, respectively.
Take `C[C@H](NC(=O)[C@H](CC(=O)O)NC(=O)[C@H](CC(=O)O)NC(=O)[C@H](CC(N)=O)NC(=O)[C@H](Cc1c[nH]cn1)NC(=O)[C@H](CO)NC(=O)[C@H](CC(N)=O)NC(=O)[C@@H](NC(=O)[C@H](CC(=O)O)NC(=O)[C@H](Cc1ccccc1)NC(=O)[C@H](CCCCN)NC(=O)[C@H](CO)NC(=O)[C@H](Cc1ccc(O)cc1)NC(=O)[C@@H](NC(=O)[C@@H](N)CCC(N)=O)[C@@H](C)O)[C@@H](C)O)C(=O)O`: the pIC50 against HLA-DR DRB1*0101 (DR1) (DRB1 *0101) was 4.76; at HLA-DR DRB1*0405 (DR4) (DRB1 *0405) it was 7.11; at HLA-DR DRB5*0101 (DR51) (DRB5 *0101), 5.24; against HLA-DR DRB1*1501 (DR15) (DRBI *1501), 4.59; on HLA-DR DRB1*0401 (DR4) (DRB1 *0401) it was 7.01.
`CC(C)C[C@H](NC(=O)CNC(=O)[C@H](Cc1ccc(O)cc1)NC(=O)[C@H](CC(N)=O)NC(=O)[C@H](CCCCN)NC(=O)[C@H](CC(C)C)NC(=O)[C@H](CC(C)C)NC(=O)[C@H](C)NC(=O)[C@H](CC(=O)O)NC(=O)[C@H](CC(=O)O)NC(=O)[C@H](CC(N)=O)NC(=O)[C@H](Cc1c[nH]cn1)NC(=O)[C@H](CO)NC(=O)[C@H](CC(N)=O)NC(=O)[C@@H](N)[C@@H](C)O)C(=O)O`: the pIC50 was 4.78 at HLA-DR DRB1*0101 (DR1) (DRB1 *0101), 4.79 against HLA-DR DRB1*0405 (DR4) (DRB1 *0405), 5.29 against HLA-DR DRB1*1302 (DR13) (DRBI *1302) and 4.69 on HLA-DR DRB1*0401 (DR4) (DRB1 *0401).
As for `CC(C)C[C@H](NC(=O)[C@H](CC(C)C)NC(=O)[C@H](C)NC(=O)[C@H](CC(C)C)NC(=O)CNC(=O)[C@H](CCC(N)=O)NC(=O)[C@H](Cc1c[nH]c2ccccc12)NC(=O)[C@@H](NC(=O)[C@H](CCC(=O)O)NC(=O)[C@@H](NC(=O)[C@H](C)NC(=O)[C@H](CCC(N)=O)NC(=O)[C@H](CCC(N)=O)NC(=O)CNC(=O)[C@@H](N)C(C)C)C(C)C)C(C)C)C(=O)O`, the pIC50 was 6.79 against HLA-DR DRB1*0101 (DR1) (DRB1 *0101); 6.03 on HLA-DR DRB1*0405 (DR4) (DRB1 *0405); 7.92 on HLA-DR DRB1*1501 (DR15) (DRBI *1501); 5.41 at HLA-DR DRB4*0101 (DR53) (DRB4 *0101); 5.88 against HLA-DR DRB1*1302 (DR13) (DRBI *1302).
`CC[C@H](C)[C@H](NC(=O)[C@H](CC(C)C)NC(=O)[C@H](C)NC(=O)[C@H](CCCNC(=N)N)NC(=O)[C@@H]1CCCN1C(=O)CNC(=O)[C@H](Cc1c[nH]c2ccccc12)NC(=O)[C@H](CC(C)C)NC(=O)[C@H](Cc1ccccc1)NC(=O)[C@H](CCC(=O)O)NC(=O)[C@@H](N)Cc1ccc(O)cc1)C(=O)O`: the pIC50 on HLA-B*4403 was 9.23; against HLA-B*1801 it was 8.28; against HLA-B*4501 it was 6.35; against HLA-B*4002, 8.55; at HLA-B*4402, 7.04; against HLA-B*4001, 8.39.
On HLA-DR DRB1*0401 (DR4) (DRB1 *0401), `CC[C@H](C)[C@H](NC(=O)[C@@H](NC(=O)[C@H](CCCCN)NC(=O)[C@@H](N)Cc1ccc(O)cc1)[C@@H](C)O)C(=O)N[C@@H](C)C(=O)N[C@@H](Cc1ccc(O)cc1)C(=O)N[C@@H](CC(=O)O)C(=O)N[C@@H](CCC(=O)O)C(=O)N[C@@H](CCC(=O)O)C(=O)N[C@@H](C)C(=O)N[C@@H](CCCNC(=N)N)C(=O)N[C@@H](CCCNC(=N)N)C(=O)O` showed a pIC50 of 5.40.
For ALGAQKEAISPPDAA, the pIC50 on HLA-DR DRB1*0101 (DR1) (read-out: DRB1 *0101) was 6.71; at HLA-DR DRB1*0405 (DR4) (read-out: DRB1 *0405), 4.89.
Take ALQAQKEAISPPDAA: the values for the pIC50 at HLA-DR DRB5*0101 (DR51) (read-out: DRB5 *0101), on HLA-DR DRB1*1101 (DR11) (read-out: DRB1 *1101) and on HLA-DR DRB1*1501 (DR15) (read-out: DRBI *1501) were 5.40, 5.38 and 4.85, respectively.
In the case of KEDSHCAWTIVRVEI, the pIC50 was 5.03 at HLA-DR DRB1*1101 (DR11) (read-out: DRB1 *1101), 5.85 on HLA-DR DRB1*1501 (DR15) (read-out: DRBI *1501), 8.10 at HLA-DR DRB4*0101 (DR53) (read-out: DRB4 *0101) and 6.30 on HLA-DR DRB1*1302 (DR13) (read-out: DRBI *1302).
For SDSNVYDLLKNLEEG, the pIC50 is 4.61 at HLA-DR DRB1*0101 (DR1) (read-out: DRB1 *0101), 7.02 at HLA-DR DRB1*0405 (DR4) (read-out: DRB1 *0405) and 4.96 at HLA-DR DRB1*0401 (DR4) (read-out: DRB1 *0401).
Regarding STGWNETIVENLLAN, the pIC50 on HLA-DR DRB1*0101 (DR1) (read-out: DRB1 *0101) was 4.67; at HLA-DR DRB1*0405 (DR4) (read-out: DRB1 *0405) it was 5.15; on HLA-DR DRB1*1101 (DR11) (read-out: DRB1 *1101), 4.69; at HLA-DR DRB1*1501 (DR15) (read-out: DRBI *1501), 6.05.
